Assay results taken from US20050130961A1, “Muscarinic M1 receptor agonists for pain management” (priority 2003, published 2005).

Chains of the proteins cited; added tags and fusions are not shown. Lines headed by an entry give the natural chain unless they say otherwise; changes in a name come on top.
UniProt P11229: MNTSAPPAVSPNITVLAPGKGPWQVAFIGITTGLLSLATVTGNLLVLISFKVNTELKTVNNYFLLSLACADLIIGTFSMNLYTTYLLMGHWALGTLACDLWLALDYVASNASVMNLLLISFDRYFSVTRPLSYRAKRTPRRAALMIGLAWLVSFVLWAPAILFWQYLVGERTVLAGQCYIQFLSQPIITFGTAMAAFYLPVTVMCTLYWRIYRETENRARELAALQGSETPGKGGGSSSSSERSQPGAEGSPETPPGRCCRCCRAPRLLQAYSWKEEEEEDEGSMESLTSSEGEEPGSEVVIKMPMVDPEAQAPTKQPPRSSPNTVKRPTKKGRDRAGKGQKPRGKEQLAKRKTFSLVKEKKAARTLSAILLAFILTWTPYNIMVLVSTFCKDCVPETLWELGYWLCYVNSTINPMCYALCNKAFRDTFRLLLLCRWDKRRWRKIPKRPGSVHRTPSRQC
UniProt P08172, whole entry: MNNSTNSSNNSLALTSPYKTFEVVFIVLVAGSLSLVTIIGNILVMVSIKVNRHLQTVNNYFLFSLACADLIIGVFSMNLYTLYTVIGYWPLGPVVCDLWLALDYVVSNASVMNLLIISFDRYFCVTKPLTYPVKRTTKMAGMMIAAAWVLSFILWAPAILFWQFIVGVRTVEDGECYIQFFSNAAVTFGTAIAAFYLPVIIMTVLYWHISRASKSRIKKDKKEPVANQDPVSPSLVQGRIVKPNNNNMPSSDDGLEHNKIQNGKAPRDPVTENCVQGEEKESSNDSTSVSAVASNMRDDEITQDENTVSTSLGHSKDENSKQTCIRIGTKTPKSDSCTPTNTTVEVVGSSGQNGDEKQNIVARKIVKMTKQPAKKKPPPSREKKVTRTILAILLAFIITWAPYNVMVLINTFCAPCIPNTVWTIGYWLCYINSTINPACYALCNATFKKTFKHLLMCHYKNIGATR

Experiments:
[1] = molecular target: T1, M(1) muscarinic receptor (Homo sapiens, UniProt P11229); test: R-SAT functional receptor assay, M(1); type: cell-based
T1 construct: expressed in transfected cells
Source text: (§1) The functional receptor assay, Receptor Selection and Amplification Technology (R-SAT), essentially as disclosed in U.S. Pat. Nos. 5,707,798, 5,912,132, and 5,955,281, which are all hereby incorporated by reference in their entirety, was used to investigate the pharmacological properties of known and novel muscarinic agonists.

[2] = molecular target: T2, M(2) muscarinic receptor (Homo sapiens, UniProt P08172); test: R-SAT functional receptor assay, M(2); type: cell-based; conditions: read-out: M2 pEC50 (converted)
T2 construct: expressed in transfected cells
Source text: as §1

agonist character at M(1) receptor, in words [1]: potent and efficacious full agonists
EC50 [2]: 316 nM
Compound: CCCCCCOc1nsnc1C1=CCCN(C)C1 [Xanomeline]
